## AlphaSeq binding of Ab-14 light chain variants to a spike HR2 peptide

Source: Engelhart et al. 2022 (doi:10.1038/s41597-022-01779-4), MIT Lincoln Laboratory and A-Alpha Bio; data file from the FLAb repository.

Target: peptide PDVDLGDISGINAS, taken from heptad repeat 2 (HR2) of SARS-CoV-2 spike.

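The starting antibody came from a phage panning campaign against this peptide. AAYL50 was designed without a model: most single CDR substitutions and a random sample of double and triple ones. The assay is AlphaSeq: two haploid yeast populations carry antibody and antigen on their surface. Mating (16 h, 30 °C) was followed by selection of diploids and sequencing of their barcodes. The ratio of observed to expected reads was calibrated, replicate by replicate, on BCL2-family standards whose Kd was known from biolayer interferometry. The assay was run in three technical replicates.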

Parent scFv Ab-14: VH joined to VL by a 15-residue (Gly4Ser)3 linker. Changes lie in the light chain CDRs alone.
VH: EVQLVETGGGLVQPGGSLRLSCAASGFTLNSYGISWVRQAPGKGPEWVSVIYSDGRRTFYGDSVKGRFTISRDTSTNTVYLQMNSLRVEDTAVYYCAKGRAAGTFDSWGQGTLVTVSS
VL: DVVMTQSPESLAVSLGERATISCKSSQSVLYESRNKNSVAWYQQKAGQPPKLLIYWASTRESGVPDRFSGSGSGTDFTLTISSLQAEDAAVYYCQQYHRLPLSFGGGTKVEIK

Each variant is given by its three light chain CDRs, as the data file delimits them; those of the parent are KSSQSVLYESRNKNSVA, WASTRES, QQYHRLPLS.
The read-out is the apparent dissociation constant on a log10 scale (nM): the lower, the stronger.
Replicates are averaged; those with no signal do not enter the mean.
A pair that was not seen in that replicate is written "ND"; this usually means weak binding, but a binder can also be missed.
In this assay the parent's reference entry averaged 0.65; its copy inside this library read 1.68.

| CDR-L1 | CDR-L2 | CDR-L3 | log10 Kd (nM) by replicate | log10 Kd (nM), mean |
|---|---|---|---|---|
| KSSQSSLYQSANKNSVA | WASTRES | QQYHRLPLS | 0.80 1.06 1.04 | 0.97 |
| KSSQSVDYESRVKNSVA | WASTNES | QQYHRLPLS | 4.21 ND ND | 4.21 |
| CSSQGVLYESRNKNSVA | WISTRES | QQYHRLPLS | ND ND ND | ND |
| KSSQAVLYNSRNKNSVA | WASTRES | QQYHRAPLS | 2.50 2.43 2.64 | 2.52 |
| KSSQAVLYFSRNKNSVA | WASTRES | QQYHRLHLS | 2.09 2.06 2.53 | 2.23 |
| KSSQSVLYESRNKNSVP | WASTRES | QQYHRLPHF | ND ND ND | ND |
| KSSHSVLYESRNKNSVA | WASTREQ | QQYHRLPWS | 0.26 0.64 1.08 | 0.66 |
| KSSQSVLTESRNKNSNV | WASTRES | QQYHRLPLS | 4.37 3.95 5.01 | 4.44 |
| KSSNSVLYESRNKNSVA | WASTRES | QQYHRLPTS | 3.21 ND ND | 3.21 |
| KSEQSELYFSRNKNSVA | WASTRES | QQYHRLPLS | 0.63 0.90 0.69 | 0.74 |
| KSSQSVLEESRNKNSVA | WASTRES | QQYHHMPLS | 0.54 1.38 0.54 | 0.82 |
| KSSQSVLYELRNKNSVA | WASTRSS | QQEHRLPLS | 2.38 2.08 2.69 | 2.39 |
| KSSMSVLYESRNKNSVA | WASTREP | QQYHRPPLS | 1.08 1.27 1.26 | 1.21 |
| KSSQSMLYESRNKNSGA | WASTRES | QQYHRLPLK | 2.69 ND ND | 2.69 |
| KSSQTVLYQSRNKNSVA | WASTRES | QCYHRLPLS | 2.25 2.88 4.25 | 3.13 |
| KSSQSVLYESRNKNSVT | WASTRES | QTYHRLPVS | ND ND 2.91 | 2.91 |
| KMSQSVLYESRNKNSVA | WASTRES | QQYNRLPLC | 0.59 0.87 0.68 | 0.71 |
| KSSQSVLYESRNKNSVF | WASTRES | SQYHRLPIS | ND ND ND | ND |
| KSSQSVLYESRNKNSVT | WGSTRES | QQQHRLPLS | 3.98 ND 3.15 | 3.57 |
| KSSQSVLYESRNKNSVA | DASTRES | QQYKRLPNS | ND ND ND | ND |
| KSSQSVLIESRNKNSVA | WASTRGS | QQYQRLPLS | 1.28 1.50 1.25 | 1.34 |
| KSSQNVLYEIRNKNSVA | WASTRES | QQYHRLPLS | 3.17 3.71 4.33 | 3.73 |
| KSSQSVLYESRGKNSVQ | WASTRES | QQMHRLPLS | ND ND ND | ND |
| KYSQSVLYESRDKNSVA | WASTRES | QQYHRLPLS | 0.02 1.08 -0.09 | 0.33 |
| KSSQSVLYHSRNKNEVW | WASTRES | QQYHRLPLS | 3.97 ND ND | 3.97 |
| KSSQPVLYESRNKNEVT | WASTRES | QQYHRLPLS | ND 4.60 ND | 4.60 |

Second part, the sequence after the result:

| log10 Kd (nM) by replicate | log10 Kd (nM), mean | CDR-L1 | CDR-L2 | CDR-L3 |
|---|---|---|---|---|
| 2.52 2.78 3.94 | 3.08 | KSSQSVLYESRNKNSVA | WASWRES | QQYLRLPLS |
| 3.29 2.64 3.69 | 3.21 | KSSQRVLYESRNKNSVA | WASTRES | QQYIRLPLS |
| 4.93 ND ND | 4.93 | KSSQSVLEESRNKNSSA | WASTRES | QQYHREPLS |
| 1.41 1.32 1.28 | 1.34 | MSSQSVLYESRNKNSVA | WASTRES | QQIHRLCLS |
| 0.61 0.84 0.72 | 0.72 | KQSQSVLYESRNDNSVA | WASTRES | QQYCRLPLS |
| 4.36 ND ND | 4.36 | KSSQSVLYESRNKNGEA | WASTRES | QQYHRLPVS |
| 0.66 0.87 0.85 | 0.79 | KSSQAVLYESRNKNSVA | WASTRED | QQYHRLPLV |
| 0.96 1.09 0.90 | 0.98 | VFSQSVLYESRNKNSVA | WASTRFS | QQYHRLPLS |
| ND ND ND | ND | KSSQSVLYESRNKNSVA | WASVRIS | QQYHTLPLS |
| 2.14 1.87 2.60 | 2.20 | KQSQSVLYESRNKNEVA | WASTRES | QQWHRLPLS |
| 3.53 ND 3.76 | 3.65 | KSSQSVLCESRCKNSVA | WASTRES | QQYDRLPLS |
| 1.29 1.65 1.56 | 1.50 | KSPLSVQYESRNKNSVA | WASTRES | QQYHRLPLS |
| ND ND ND | ND | KSSQSVFYESRNKNSVA | WASTGES | QQYHRLFLS |
| 4.95 4.06 4.85 | 4.62 | KSSQSVLYESRNKNSVA | WASTRES | YQYHRLPGS |
| ND ND ND | ND | KSSQVVLYESRNKNSVA | WAFTRIS | QQYHRLPLS |
| 1.32 1.57 1.53 | 1.47 | KSSQSVLYESRNKNSVA | AASTRES | QQVHRLPLN |
| ND ND ND | ND | KSSQSVLYFSRNKNMVA | WASTRES | QQFHRLPLS |
| 0.53 0.57 0.44 | 0.51 | KSSQSVLYEVRNKNSVA | SASTRES | QQYHRLPLS |
| 0.24 0.38 0.18 | 0.27 | KSSQSVQGETRNKNSVA | WASTRES | QQYHRLPLS |
| ND ND 3.51 | 3.51 | KSSQSVLYESINKNSVA | WASTRER | KQYHRLPLS |
| 0.65 0.63 0.72 | 0.67 | KSSQSVLDESRNKESVA | WASTVES | QQYHRLPLS |
| 2.13 2.23 2.07 | 2.14 | KSSQSVLYEWRNKNSVA | WASTKES | QQYHRLPLM |
| 0.64 0.78 0.85 | 0.76 | KSSQSVYYEDRKKNSVA | WASTRES | QQYHRLPLS |
| ND ND ND | ND | KSSQSVLYESRNKNSIA | WASTRES | QQKHRLALS |
| ND 3.11 2.47 | 2.79 | KSSQSVLYESRWKNCVA | WASTRES | QQYHRLPYS |
| ND 3.72 ND | 3.72 | KSSQSVLYESRNQNSHA | WASIRES | QQYHRLPLS |

Repeated from above, the 9 best binders with a signal in all replicates:

| CDR-L1 | CDR-L2 | CDR-L3 | log10 Kd (nM) by replicate | log10 Kd (nM), mean |
|---|---|---|---|---|
| KSSQSVQGETRNKNSVA | WASTRES | QQYHRLPLS | 0.24 0.38 0.18 | 0.27 |
| KYSQSVLYESRDKNSVA | WASTRES | QQYHRLPLS | 0.02 1.08 -0.09 | 0.33 |
| KSSQSVLYEVRNKNSVA | SASTRES | QQYHRLPLS | 0.53 0.57 0.44 | 0.51 |
| KSSHSVLYESRNKNSVA | WASTREQ | QQYHRLPWS | 0.26 0.64 1.08 | 0.66 |
| KSSQSVLDESRNKESVA | WASTVES | QQYHRLPLS | 0.65 0.63 0.72 | 0.67 |
| KMSQSVLYESRNKNSVA | WASTRES | QQYNRLPLC | 0.59 0.87 0.68 | 0.71 |
| KQSQSVLYESRNDNSVA | WASTRES | QQYCRLPLS | 0.61 0.84 0.72 | 0.72 |
| KSEQSELYFSRNKNSVA | WASTRES | QQYHRLPLS | 0.63 0.90 0.69 | 0.74 |
| KSSQSVYYEDRKKNSVA | WASTRES | QQYHRLPLS | 0.64 0.78 0.85 | 0.76 |

Nonspecific signal, from three strains lacking the peptide, appeared in 18% of pairings of library AAYL50, centred on 4.19 (5% of these signals below 2.99); values are not corrected for it.